# Biological target: T1, prothrombinase complex (Homo sapiens, UniProt P00742)
# Amino acid sequences for entries named in this document (tags omitted). Residues count along the entry.
# UniProt P00742, 41-179 limits assumed: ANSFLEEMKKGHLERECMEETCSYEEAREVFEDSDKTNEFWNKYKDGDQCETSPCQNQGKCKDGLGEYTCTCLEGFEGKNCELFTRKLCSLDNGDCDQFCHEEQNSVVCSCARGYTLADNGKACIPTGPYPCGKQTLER
# UniProt P00742, 235-488 limits assumed: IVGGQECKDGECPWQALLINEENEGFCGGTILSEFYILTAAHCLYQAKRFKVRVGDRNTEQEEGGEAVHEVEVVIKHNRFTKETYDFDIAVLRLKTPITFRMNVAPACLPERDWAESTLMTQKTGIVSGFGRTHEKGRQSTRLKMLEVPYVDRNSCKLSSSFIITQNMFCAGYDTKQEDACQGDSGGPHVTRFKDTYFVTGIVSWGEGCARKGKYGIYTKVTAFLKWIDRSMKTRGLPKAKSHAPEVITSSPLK
# T1 construct: from tissue; host or cells: pooled human plasma
# Test: Tissue factor-initiated thrombin generation assay in human plasma
# Format: biochemical
# Conditions: human plasma; read-out: IC50, inhibition of prothrombinase activity (thrombin generation)
# Description: The lines represent the best fittings; Kd and Ki values are listed. mOD min^−1=miliOptical Density per minute. […] Grey bar: Control plasma alone (PPP), Filled bar: rivaroxaban or rivaroxaban+r-antidote, Open bar: Control plasma+r-antidote. […] Thrombin generation was initiated by addition of Ca^2+ and tissue factor (TF). Cleavage of thrombin specific substrate Z-GGR-AMC (RFU=Relative Fluorescence Units) was measured at 37° C. for 10 min.
# Anesthetized rats were administered enoxaparin (4.5 mg/kg) or vehicle by I.V. bolus injection followed by tail transection (2 mm from tip) 5 minutes later. […] The tip of the tail was placed in physiologic saline at 37° C. and blood collected for an additional 45 minutes after tail transection. Blood was lysed by diluting in water and freezing at −80° C. overnight. […] Anti-fXa activity of enoxaparin was measured using a modified chromogenic LMW heparin kit. Tissue factor (TF)-initiated thrombin generation was carried out in human plasma using a fluorogenic thrombin substrate by measurement of change of relative fluorescence unit (RFU) for 10 min following initiation of the reaction.
# Innovin was used as the source of TF to initiate the generation of thrombin. The reaction mixture (final volume=100 μL) contained 15 mM Ca^2, 100 μM Z-GGR-AMC, and 0.1 nM TF. […] Tris-buffered saline (20 mM Tris, 150 mM NaCl, pH=7.4) was used to adjust the final volume of the reaction mixture.
substance,measurement,value
EGR-Xa: an active site inhibited full length human fXa (human plasma derived) [reference compound],IC50,0.026 µM
